The text below walks through data of patent publication US8222419B2, “Oxepin derivative” (Nippon Zoki Pharmaceutical Co., Ltd., priority 2006, dated 2012).

Sequences of proteins named here, by UniProt entry; tags and fusion partners are left off.
UniProt P70174, whole entry: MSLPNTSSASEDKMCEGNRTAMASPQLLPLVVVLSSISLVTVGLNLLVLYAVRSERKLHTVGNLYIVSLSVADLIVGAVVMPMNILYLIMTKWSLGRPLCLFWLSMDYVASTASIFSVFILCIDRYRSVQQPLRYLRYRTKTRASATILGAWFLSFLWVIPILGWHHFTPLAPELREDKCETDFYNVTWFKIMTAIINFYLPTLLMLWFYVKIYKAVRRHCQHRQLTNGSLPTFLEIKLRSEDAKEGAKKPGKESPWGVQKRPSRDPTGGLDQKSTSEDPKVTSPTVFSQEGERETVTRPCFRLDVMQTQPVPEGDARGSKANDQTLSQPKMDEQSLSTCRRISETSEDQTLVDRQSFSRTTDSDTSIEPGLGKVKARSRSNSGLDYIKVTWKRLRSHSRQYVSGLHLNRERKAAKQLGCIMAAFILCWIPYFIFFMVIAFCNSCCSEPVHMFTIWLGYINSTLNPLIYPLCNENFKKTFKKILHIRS

The target of the assay is T1, H1 receptor (Mus musculus, UniProt P70174).
T1 construct: The excised brain tissue was homogenized with Polytron; from tissue; host or cells: entire brain except cerebellum and medulla oblongata, homogenate
As to the kind of experiment: Murine intracranial H1 receptor content (ex vivo), 3H-pyrilamine binding in brain homogenate after oral dosing.

SMILES strings stand for the structures.

Take `CN1CCC(=C2c3ccccc3CC(=O)c3sccc32)CC1` [Ketotifen, reference compound]: the “ID50 (mg/kg)/ED50 (mg/kg)” value (ID50 of intracranial receptor binding test (Table 7) divided by ED50 of histamine-induced vascular hyperpermeability test (Table 6)) is on record as 0.9. Also, the ED50 (mouse, oral administration, brain excised after 1 hour, 3H-pyrilamine 2 nmol/L binding to brain homogenate, read-out: ID50 (the source's name)) was determined as 0.51 mg/kg.
